Reference: patent publication US7105725B2, “Pathogen resistant transgenic plants expressing CEMA or CEMA-related peptides” (University of Victoria Innovation and Development …, priority 1999, dated 2006)

Experiment: preliminary feeding trials of transgenic tubers
Conditions: feeding for a month, tubers from ECEMA-expressing transgenic potato plants

CC[C@H](C)[C@H](NC(=O)CNC(=O)[C@@H](NC(=O)[C@H](CCCCN)NC(=O)[C@H](CCCCN)NC(=O)[C@H](Cc1ccccc1)NC(=O)[C@H](CC(C)C)NC(=O)[C@H](CCCCN)NC(=O)[C@H](Cc1c[nH]c2ccccc12)NC(=O)[C@H](CCCCN)NC(=O)[C@H](CCSC)NC(=O)[C@H](Cc1c[nH]cn1)NC(=O)[C@H](CCC(=O)O)NC(=O)[C@H](CC(C)C)NC(=O)[C@H](C)NC(=O)[C@@H](N)CCSC)[C@@H](C)CC)C(=O)NCC(=O)N[C@@H](C)C(=O)N[C@H](C(=O)N[C@@H](CC(C)C)C(=O)N[C@@H](CCCCN)C(=O)N[C@H](C(=O)N[C@@H](CC(C)C)C(=O)N[C@H](C(=O)N[C@H](C(=O)NCC(=O)N[C@@H](CC(C)C)C(=O)N1CCC[C@H]1C(=O)N[C@@H](C)C(=O)N[C@@H](CC(C)C)C(=O)N[C@@H](CCCCN)C(=O)N[C@@H](CC(C)C)C(=O)N[C@H](C(=O)N[C@@H](CCCCN)C(=O)O)[C@@H](C)O)[C@@H](C)O)[C@@H](C)O)C(C)C)C(C)C [ECEMA]
toxicity of tubers to mice: not toxic
